Assay results: patent publication US5665719A, “Benzoxazinone and benzopyrimidinone piperidinyl tocolytic oxytocin receptor antagonists” (Merck & Co., Inc., priority 1995, dated 1997)

The compounds below were run against T1, uterine OT receptors (Rattus norvegicus, UniProt P70536) (assay: [3H]Oxytocin (OT) radioligand binding to uterine OT receptors, crude uterine membranes from DES-treated rats).
T1 construct: from tissue; host or cells: uterus of diethylstilbestrol dipropionate (DES)-treated rats, crude membrane preparation
T1 sequence (P70536 1-388): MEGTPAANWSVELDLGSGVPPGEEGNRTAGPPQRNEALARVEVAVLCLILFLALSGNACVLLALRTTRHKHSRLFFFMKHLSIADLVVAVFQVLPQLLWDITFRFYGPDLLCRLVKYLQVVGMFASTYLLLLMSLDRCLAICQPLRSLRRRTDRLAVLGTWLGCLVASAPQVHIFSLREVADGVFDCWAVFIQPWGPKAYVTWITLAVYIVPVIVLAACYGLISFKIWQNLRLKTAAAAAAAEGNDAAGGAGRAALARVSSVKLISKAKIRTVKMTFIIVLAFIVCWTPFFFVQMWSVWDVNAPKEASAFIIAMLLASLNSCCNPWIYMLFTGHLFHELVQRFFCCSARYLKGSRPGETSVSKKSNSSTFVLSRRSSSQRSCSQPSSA
Experimental: The high affinity binding of [^3 H]Oxytocin (OT)([tyrosyl, 3,5-[^3 H]OT; 30-60 Ci/mmol; New England Nuclear. Boston, Mass.) to uterine OT receptors was based on an assay (Fuchs, A-R; Fuchs, F; Soloff, MS. 1985 J. Clin. Endocrinol. Metab. 60:37) using a crude membrane preparation of uteri taken from diethylstilbestrol dipropionate (DES)-treated (0.3 mg/kg, ip; 18-24) rats. Competition studies were conducted at equilibrium (60 minutes; 22° C.) using 1 nM[^3 H]OT in the following assay buffer: 50 mM Tris-HCl, 5 mM MgCl2, and 0.1% BSA, pH 7.4. Nonspecific binding (10% of the total binding) was determined using 1 μM unlabeled OT and the binding reaction was terminated by filtration through glass fiber filters using a cell harvester (model 7019, Skatron, Inc., Sterling, Va.). IC50 values (the concentration of tested compound that inhibits 50% of OT) were reported.
IC50 values were determined for the [^3 H]OT and [^3 H]AVP binding assays by linear regression of the relation log concentration of compound vs. percent inhibition of specific binding. Data is either reported as a given percentage of inhibition at a specified concentration,or if an IC50 was calculated, as a nanomolar concentration.

SMILES	IC50
CC(=O)N1CCCCC1CCOc1ccc(C(=O)N2CCC(N3C(=O)OCc4ccccc43)CC2)cc1 (stereo not shown) [Example 34, 1-(1-(4-(N-Acetyl-2-piperidinylethoxy)benzoyl)piperidin-4-yl)-1,2-dihydro-4(H)-3,1-benzoxazin-2-one]	320 nM
COc1cc(OC2CCN(Cc3cccnc3)CC2)ccc1C(=O)N1CCC(N2C(=O)OCc3ccccc32)CC1 [Example 47, 1-(1-(4-(1-(3 -Picolyl)-4-piperidinyloxy)-2-methoxybenzoyl)piperidin-4-yl)-1,2-dihydro-4(H)-3,1-benzoxazin-2-one]	76 nM
COc1cc(OC2CCN(Cc3cccnc3C)CC2)ccc1C(=O)N1CCC(N2C(=O)OCc3ccccc32)CC1 [Example 147, 1-(1-{2-methoxy-4-[1-(2-methyl-pyridin-3-ylmethyl)piperidin-4-yloxy]-benzoyl}-piperidin-4-yl)-1,4-dihydro-benzo[1,3]oxazin-2-one]	54 nM
COc1cc(OC2CCN(C(C)=O)CC2)ccc1C(=O)N1CCC(N2C(=O)OCc3ccccc32)CC1 [Example 27, 1-(1-(4-(4-(N-Acetyl)piperidinyloxy)-2-methoxybenzoyl)piperidin-4-yl)-1,2-dihydro-4(H)-3,1-benzoxazin-2-one]	46 nM
